{"source": "patent US10953042B2", "about": "“Vanadium insulin-mimetics, methods of preparation, and methods for treatment of diabetes” (The University of Trinidad and Tobago, priority 2017, dated 2021)", "origin": "cited, not measured here", "system": "phosphatase", "settings": "free state; cited from earlier work"}
{"smiles": "O=C(O)c1cccc(C(=O)O)n1", "note": "[dipicolinic acid, Pyridine-2,6-dicarboxylic acid]", "values": [{"measurement": "phosphatase or insulin-like activity", "result": "insignificant"}]}
